{"sequences": {"note": "Chains of the proteins cited; added tags and fusions are not shown.", "UniProt P14416, whole entry, looked up": "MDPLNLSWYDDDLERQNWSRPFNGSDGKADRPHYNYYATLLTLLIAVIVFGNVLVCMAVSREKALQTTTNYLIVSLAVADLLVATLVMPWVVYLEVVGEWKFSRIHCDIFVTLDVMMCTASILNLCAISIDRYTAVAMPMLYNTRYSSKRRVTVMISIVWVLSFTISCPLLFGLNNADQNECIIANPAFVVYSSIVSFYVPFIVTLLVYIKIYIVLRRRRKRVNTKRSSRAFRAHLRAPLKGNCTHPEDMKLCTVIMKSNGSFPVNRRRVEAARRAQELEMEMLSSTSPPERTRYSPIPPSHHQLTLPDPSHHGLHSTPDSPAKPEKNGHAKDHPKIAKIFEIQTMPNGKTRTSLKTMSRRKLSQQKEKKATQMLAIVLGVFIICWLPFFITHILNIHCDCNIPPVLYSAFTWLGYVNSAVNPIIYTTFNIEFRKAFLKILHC"}, "source": "PubChem BioAssay AID624464", "about": "(National Center for Advancing Translational Sciences (NCATS), 2012)", "note": "The whole screen tested about 360,000 compounds, of which about 810 (0.23%) were called active. These results got no clear call from the source, so the numbers are uncertain. No stated cut-off is given here; in the data, active means potentiation above about 50%; inconclusive means mostly about 30% to 49%; inactive means weaker than that."}
{"molecular_target": "D(2) dopamine receptor (Homo sapiens) (UniProt P14416)", "experiment": "Beta-Arrestin HTS for Positive Allosteric Modulators of the Human D2 Dopamine Receptor: Potentiators", "conditions": "DiscoveRx D2 beta-arrestin cells, luminescence, 90 min; stronger effect = higher value; 100% = 57 uM dopamine signal", "excerpt": "There is great interest in identifying small molecule ligands for G-protein coupled receptors (GPCRs) as nearly 50% of all FDA-approved drugs target these important receptor proteins. […] Amongst the dopamine receptors (DARs), the D2 is arguably one of the most validated drug targets in neurology and psychiatry. For instance, all receptor-based antiparkinsonian drugs primarily work via stimulating the D2 DAR, whereas all FDA-approved antipsychotic agents are antagonists of this receptor. The D2 DAR is also therapeutically targeted in other disorders such as restless legs syndrome, tardive dyskinesia, Tourette's syndrome, and hyperprolactinemia.\nTo this end, a miniaturized qHTS screen was developed to be screened against the Molecular Libraries Small Molecule Repository (MLSMR). This assay seeks to identify potentiators against the D2 DAR.\nNIH Molecular Libraries Probe Production Network [MLPCN] […]\nDiscoveRx D2 cells were thawed from frozen stock and seeded at 2,100 cells/ 3 uL/well media (DiscoveRx Plating Reagent 2) with MultiDrop Combi dispenser (Thermo Scientific, Logan, UT) onto white tissue culture treated 1536-well Aurora plates (Brooks Automation, Chelmsford, MA) and allowed to attach overnight at 37 deg C, 5% CO2. […] The plates were incubated at ambient temperature for 1 hour and then the luminescent signal was read on ViewLux plate reader (PerkinElmer, Waltham, MA)."}
{"smiles": "CCCOP(=S)(Nc1nc(N)cc(=O)[nH]1)OCCC", "potentiation": "inconclusive: 30.5%"}
